From US9198906B2, “Ketoconazole enantiomer in humans” (Cortendo AB (publ), priority 2006, dated 2015)

Test: Atorvastatin drug interaction study (3-way cross-over)
Conditions: 80 mg atorvastatin + 400 mg; relative to the atorvastatin-only control

2S,4R ketoconazole [DIO-902]
AUC of total active HMG CoA reductase inhibitor in plasma: increasing
Cmax of total active HMG CoA reductase inhibitor in plasma: reduced
